Assay results reported in patent US20100092974A1, “METHODS FOR SCREENING FOR MODULATORS OF CCRL2” (The Board of Trustees of the Leland Stanford Junior …, priority 2008, published 2010).

Molecular target: T1, mCCRL2 (Mus musculus, UniProt O35457)
T1 construct: The coding regions of mCCRL2, huCCRL2, mCRTH2, and huCCR10 were amplified from genomic DNA; expressed in transfected cells
T1 sequence (O35457 1-360): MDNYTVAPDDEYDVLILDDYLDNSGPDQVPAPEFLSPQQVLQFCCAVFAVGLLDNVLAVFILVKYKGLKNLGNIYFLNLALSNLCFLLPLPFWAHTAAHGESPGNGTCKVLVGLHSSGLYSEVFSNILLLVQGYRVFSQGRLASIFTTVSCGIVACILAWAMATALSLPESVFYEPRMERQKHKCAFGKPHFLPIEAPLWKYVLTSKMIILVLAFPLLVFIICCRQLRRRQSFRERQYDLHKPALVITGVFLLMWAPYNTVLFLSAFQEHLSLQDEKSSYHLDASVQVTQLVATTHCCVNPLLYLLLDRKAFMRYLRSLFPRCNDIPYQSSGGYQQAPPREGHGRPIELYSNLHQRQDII
Test: 125I-chemerin competition binding, mCCRL2-HA/L1.2 transfectants
Conditions: 1 nM 125I-chemerin; EC50 could not be determined

`C[C@H](NC(=O)[C@H](Cc1ccccc1)NC(=O)[C@H](CCC(N)=O)NC(=O)CNC(=O)[C@@H]1CCCN1C(=O)[C@H](Cc1ccccc1)NC(=O)[C@@H](N)Cc1ccc(O)cc1)C(=O)N[C@@H](Cc1ccccc1)C(=O)N[C@@H](CO)C(=O)O` [chemerin peptide] was tested, and the “competition for iodinated chemerin in CCRL2 binding” value was “inefficient competitor”.
